Source: PubChem BioAssay (EPA / NIEHS)
Values joined by “and” are separate entries in the source; they are usually repeats but may differ in a detail not shown here. Equal values may be shown once. The list shows a part of the results, in another mix than the full data. Inconclusive results are not listed. Where a structure was tested more than once in an assay, its records may differ in their call. Active and inactive are the calls of the source. How the source made its calls, unless noted: active means hit-call score of the fitted dose curve at least 0.9, where 1 is the maximum; inconclusive means response in the unintended direction; inactive means score below 0.9.

Sequences of proteins named here, by UniProt entry; tags and fusion partners are left off. A change or cut given only in a name is not applied to a line headed by its entry.
UniProt P04386, whole entry, looked up: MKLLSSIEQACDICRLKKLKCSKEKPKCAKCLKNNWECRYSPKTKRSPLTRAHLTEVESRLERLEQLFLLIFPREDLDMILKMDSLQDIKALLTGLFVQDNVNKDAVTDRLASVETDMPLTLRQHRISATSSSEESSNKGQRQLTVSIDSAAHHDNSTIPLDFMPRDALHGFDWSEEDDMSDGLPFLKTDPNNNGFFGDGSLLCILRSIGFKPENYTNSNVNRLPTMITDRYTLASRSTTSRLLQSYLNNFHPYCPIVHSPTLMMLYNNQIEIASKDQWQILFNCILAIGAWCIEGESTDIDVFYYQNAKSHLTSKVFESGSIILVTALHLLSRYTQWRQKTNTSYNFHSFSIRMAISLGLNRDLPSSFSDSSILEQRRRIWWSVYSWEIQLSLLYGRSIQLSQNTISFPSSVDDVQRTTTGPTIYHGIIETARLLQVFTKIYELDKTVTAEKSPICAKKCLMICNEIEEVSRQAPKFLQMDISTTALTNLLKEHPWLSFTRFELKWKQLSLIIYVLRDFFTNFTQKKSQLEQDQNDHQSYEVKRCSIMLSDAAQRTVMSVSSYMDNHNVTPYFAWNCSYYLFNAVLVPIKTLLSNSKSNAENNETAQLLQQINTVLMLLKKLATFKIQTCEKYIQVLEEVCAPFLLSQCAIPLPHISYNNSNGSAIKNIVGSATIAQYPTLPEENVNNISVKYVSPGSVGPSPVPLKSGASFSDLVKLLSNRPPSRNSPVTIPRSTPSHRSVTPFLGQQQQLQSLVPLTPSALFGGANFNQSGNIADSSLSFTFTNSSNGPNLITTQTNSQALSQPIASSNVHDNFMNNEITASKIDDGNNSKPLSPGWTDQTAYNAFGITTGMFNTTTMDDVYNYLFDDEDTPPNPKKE
UniProt P57717: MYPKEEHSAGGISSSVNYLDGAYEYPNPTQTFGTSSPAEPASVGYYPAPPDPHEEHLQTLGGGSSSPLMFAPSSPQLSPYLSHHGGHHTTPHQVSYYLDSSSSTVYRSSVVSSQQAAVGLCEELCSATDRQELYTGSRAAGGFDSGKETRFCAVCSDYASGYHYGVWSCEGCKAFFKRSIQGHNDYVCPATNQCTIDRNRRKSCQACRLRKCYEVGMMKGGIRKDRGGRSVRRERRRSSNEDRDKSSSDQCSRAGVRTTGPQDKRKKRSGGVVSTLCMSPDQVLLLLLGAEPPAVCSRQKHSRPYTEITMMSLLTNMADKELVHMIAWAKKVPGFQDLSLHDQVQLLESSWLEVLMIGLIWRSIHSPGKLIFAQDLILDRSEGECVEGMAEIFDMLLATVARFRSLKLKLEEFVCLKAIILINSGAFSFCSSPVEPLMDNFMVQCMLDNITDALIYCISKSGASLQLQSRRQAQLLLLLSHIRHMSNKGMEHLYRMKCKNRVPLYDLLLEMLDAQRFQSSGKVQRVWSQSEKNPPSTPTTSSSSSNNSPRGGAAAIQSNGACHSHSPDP
UniProt P06212, whole entry, looked up: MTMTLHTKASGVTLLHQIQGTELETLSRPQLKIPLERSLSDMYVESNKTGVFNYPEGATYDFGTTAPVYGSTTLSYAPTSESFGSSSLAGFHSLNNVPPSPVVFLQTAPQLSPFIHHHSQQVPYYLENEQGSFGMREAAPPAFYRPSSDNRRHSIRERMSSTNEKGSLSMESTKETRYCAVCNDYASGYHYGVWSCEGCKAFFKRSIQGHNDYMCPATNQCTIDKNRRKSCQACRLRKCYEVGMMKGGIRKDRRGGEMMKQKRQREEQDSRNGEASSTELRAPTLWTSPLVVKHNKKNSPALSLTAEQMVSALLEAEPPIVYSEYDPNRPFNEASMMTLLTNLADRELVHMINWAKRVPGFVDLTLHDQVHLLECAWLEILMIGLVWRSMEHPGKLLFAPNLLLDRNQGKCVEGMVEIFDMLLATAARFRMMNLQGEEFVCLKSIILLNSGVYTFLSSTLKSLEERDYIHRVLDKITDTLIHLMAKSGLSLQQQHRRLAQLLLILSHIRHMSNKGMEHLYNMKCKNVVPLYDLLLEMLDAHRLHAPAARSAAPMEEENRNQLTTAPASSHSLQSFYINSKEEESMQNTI
UniProt P37231: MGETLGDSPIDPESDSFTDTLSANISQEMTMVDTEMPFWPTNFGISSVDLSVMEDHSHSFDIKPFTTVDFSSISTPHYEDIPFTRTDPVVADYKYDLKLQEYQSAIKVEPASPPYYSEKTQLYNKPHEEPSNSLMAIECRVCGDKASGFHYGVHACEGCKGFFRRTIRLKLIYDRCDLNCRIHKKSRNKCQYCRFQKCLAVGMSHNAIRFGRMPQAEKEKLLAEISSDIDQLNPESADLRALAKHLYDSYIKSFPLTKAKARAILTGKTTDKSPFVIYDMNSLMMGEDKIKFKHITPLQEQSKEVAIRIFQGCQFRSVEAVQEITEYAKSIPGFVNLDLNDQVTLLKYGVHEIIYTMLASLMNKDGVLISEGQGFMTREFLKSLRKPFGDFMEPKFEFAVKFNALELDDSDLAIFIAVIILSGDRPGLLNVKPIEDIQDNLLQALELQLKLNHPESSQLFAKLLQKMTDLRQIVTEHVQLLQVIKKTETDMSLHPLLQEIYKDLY
UniProt P37238, whole entry, looked up: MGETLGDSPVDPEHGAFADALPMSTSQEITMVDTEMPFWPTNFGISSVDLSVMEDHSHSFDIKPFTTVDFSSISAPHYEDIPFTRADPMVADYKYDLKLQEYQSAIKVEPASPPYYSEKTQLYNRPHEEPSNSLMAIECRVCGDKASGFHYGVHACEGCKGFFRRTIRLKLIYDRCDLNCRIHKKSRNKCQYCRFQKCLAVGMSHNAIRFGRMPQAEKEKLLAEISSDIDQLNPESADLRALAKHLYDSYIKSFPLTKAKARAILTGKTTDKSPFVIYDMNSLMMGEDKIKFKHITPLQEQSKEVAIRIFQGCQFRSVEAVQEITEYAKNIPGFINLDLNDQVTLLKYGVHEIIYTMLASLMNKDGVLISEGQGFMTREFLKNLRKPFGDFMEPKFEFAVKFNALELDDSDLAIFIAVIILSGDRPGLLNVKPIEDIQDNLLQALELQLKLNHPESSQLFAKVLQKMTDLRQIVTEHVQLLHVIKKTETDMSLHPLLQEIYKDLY
UniProt Q98867: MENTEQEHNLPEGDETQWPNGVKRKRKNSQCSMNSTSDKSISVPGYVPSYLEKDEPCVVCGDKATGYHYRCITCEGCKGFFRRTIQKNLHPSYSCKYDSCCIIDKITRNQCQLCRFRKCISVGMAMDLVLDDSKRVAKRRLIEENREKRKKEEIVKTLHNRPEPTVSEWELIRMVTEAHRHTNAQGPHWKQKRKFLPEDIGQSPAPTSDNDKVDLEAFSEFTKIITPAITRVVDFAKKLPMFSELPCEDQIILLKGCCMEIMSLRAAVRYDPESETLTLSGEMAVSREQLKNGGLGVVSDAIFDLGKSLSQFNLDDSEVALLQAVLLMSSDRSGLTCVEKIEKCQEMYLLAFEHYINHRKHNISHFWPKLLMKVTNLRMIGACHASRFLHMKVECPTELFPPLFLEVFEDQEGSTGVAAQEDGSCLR
UniProt P10827: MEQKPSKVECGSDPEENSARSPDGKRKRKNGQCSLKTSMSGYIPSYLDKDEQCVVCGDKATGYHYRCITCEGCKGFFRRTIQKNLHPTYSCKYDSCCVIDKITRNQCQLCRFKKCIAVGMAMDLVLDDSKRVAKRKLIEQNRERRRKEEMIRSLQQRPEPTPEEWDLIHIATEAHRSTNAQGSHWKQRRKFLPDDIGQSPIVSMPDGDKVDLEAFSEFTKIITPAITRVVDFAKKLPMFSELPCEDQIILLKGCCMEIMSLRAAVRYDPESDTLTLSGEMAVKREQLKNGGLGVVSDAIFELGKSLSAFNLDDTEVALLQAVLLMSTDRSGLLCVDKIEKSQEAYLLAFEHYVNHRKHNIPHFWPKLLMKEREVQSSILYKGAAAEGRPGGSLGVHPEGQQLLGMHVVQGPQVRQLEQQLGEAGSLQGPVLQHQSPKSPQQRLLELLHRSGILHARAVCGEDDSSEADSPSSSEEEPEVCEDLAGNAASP
UniProt P15204: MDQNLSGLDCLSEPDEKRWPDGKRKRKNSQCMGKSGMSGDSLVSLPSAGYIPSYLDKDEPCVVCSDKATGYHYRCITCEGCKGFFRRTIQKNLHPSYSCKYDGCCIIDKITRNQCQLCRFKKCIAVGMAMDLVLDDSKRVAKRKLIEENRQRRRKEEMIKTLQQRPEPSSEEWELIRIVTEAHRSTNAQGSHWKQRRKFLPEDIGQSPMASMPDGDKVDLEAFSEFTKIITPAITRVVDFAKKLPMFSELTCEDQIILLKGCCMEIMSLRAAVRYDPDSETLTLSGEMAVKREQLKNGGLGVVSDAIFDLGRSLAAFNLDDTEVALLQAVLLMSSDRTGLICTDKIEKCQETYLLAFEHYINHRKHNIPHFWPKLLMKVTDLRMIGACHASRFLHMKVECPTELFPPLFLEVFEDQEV
UniProt P10828: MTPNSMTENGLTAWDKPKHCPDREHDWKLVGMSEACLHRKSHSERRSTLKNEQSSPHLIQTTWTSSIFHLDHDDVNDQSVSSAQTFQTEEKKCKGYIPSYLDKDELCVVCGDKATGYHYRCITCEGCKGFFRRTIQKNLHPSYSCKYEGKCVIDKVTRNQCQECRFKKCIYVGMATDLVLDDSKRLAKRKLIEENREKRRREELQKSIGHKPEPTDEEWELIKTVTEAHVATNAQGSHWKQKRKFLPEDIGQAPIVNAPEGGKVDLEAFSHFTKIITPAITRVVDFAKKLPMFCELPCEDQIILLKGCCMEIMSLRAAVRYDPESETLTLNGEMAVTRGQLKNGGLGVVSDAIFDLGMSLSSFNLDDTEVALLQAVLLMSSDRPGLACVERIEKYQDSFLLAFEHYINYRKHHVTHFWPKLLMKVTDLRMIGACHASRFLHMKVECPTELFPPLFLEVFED

Legend:
[1] = system: turtle Estrogen Receptor (ERa), gene 101933533; test: ATG_trERa_XSP2: Attagene TRANS-FACTORIAL Multi-Species (XSP2) HepG2 Assay for turtle Estrogen Receptor (ERa) (AID 2283812);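 further: actives raise reporter signal above DMSO so AC50 reflects agonist activity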
Outline: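 Readout is reporter mRNA quantified by RT-PCR with capillary electrophoresis after 24 h compound exposure, increase relative to DMSO. Uses transiently transfected human HepG2 liver cells carrying a chimeric turtle ERa-Gal4 receptor driving GAL4-UAS reporters.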

[2] = target: GAL4 Transcription Factor (Internal Marker), GAL4 (gene 855828) (UniProt P04386); test: ATG_GAL4_XSP2: Attagene TRANS-FACTORIAL Multi-Species (XSP2) HepG2 Assay for GAL4 Transcription Factor (Internal Marker) (AID 2283814);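 further: GAL4 reporter mRNA background control in MRTU transfected cells not a receptor target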
Outline: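 Background-control readout: gain-of-signal fitted against DMSO. After 24 h exposure of transfected HepG2 (MRTU, GAL4-UAS reporters; 3 nM 6-alpha-fluorotestosterone, 1.5 nM norgestrel present), transcripts quantified by RT-PCR and capillary electrophoresis fluorescence.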

[3] = target: zebrafish Estrogen Receptor (ER1), esr1 (gene 259252) (UniProt P57717); test: ATG_zfER1_XSP2: Attagene TRANS-FACTORIAL Multi-Species (XSP2) HepG2 Assay for zebrafish Estrogen Receptor (ER1) (AID 2283816)
Outline: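 After 24 h compound exposure, RNA from transfected HepG2 cells was reverse-transcribed and reporter transcripts resolved by capillary electrophoresis. The TRANS format reads exogenous zebrafish ER1-Gal4 chimera activity on GAL4-UAS elements; gain of signal against DMSO.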

[4] = target: chicken Estrogen Receptor (ERa), ESR1 (gene 396099) (UniProt P06212); test: ATG_chERa_XSP2: Attagene TRANS-FACTORIAL Multi-Species (XSP2) HepG2 Assay for chicken Estrogen Receptor (ERa) (AID 2283817);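 further: actives raise reporter signal above DMSO so AC50 reflects ER activation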
Outline: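 Readout: fluorescent reporter-transcript fragments resolved by capillary electrophoresis after RT-PCR and HpaI cut. Chicken ERa-Gal4 fusion in transiently transfected HepG2, dosed for 24 h; activity taken as increase over DMSO baseline.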

[5] = system: zebrafish Estrogen Receptor (ER2a), gene 317734; test: ATG_zfER2a_XSP2: Attagene TRANS-FACTORIAL Multi-Species (XSP2) HepG2 Assay for zebrafish Estrogen Receptor (ER2a) (AID 2283818);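 further: hits raise reporter mRNA so AC50 reflects activation of zebrafish ER2a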
Outline: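 Multiplexed trans-reporter readout: RT-PCR then capillary electrophoresis of reporter transcripts after 24 h compound treatment. Human HepG2 carries transfected zebrafish ER2a-Gal4 chimera; 3 nM 6-alpha-fluorotestosterone plus 1.5 nM norgestrel present. Induction scored against DMSO.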

[6] = system: frog Estrogen Receptor (ER), gene 398734; test: ATG_frER1_XSP2: Attagene TRANS-FACTORIAL Multi-Species (XSP2) HepG2 Assay for frog Estrogen Receptor (ER) (AID 2283821);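 further: hits raise reporter mRNA above DMSO baseline so potency means agonist or activator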
Outline: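 Reporter mRNA induction, detected as fluorescence after RT-PCR and capillary electrophoresis, is the endpoint; activity is fitted upward against DMSO. Cells are human liver HepG2 carrying transfected NR-Gal4 chimeras with GAL4-UAS-driven reporters, harvested 24 h post-dosing.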

[7] = system: zebrafish Estrogen Receptor (ER2b), gene 317733; test: ATG_zfER2b_XSP2: Attagene TRANS-FACTORIAL Multi-Species (XSP2) HepG2 Assay for zebrafish Estrogen Receptor (ER2b) (AID 2283823);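 further: fitted upward as reporter gain over DMSO so potency reflects activation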
Outline: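 Transfect HepG2 with GAL4-UAS reporter constructs; dose chemicals, 24 h; isolate RNA, RT-PCR, FAM-label, HpaI digest; capillary electrophoresis. Gain-of-signal vs DMSO.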

[8] = system: zebrafish Androgen Receptor (AR), gene 100005148; test: ATG_zfAR_XSP2: Attagene TRANS-FACTORIAL Multi-Species (XSP2) HepG2 Assay for zebrafish Androgen Receptor (AR) (AID 2283825);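 further: hits raise reporter mRNA above DMSO so AC50 reflects agonist-type gain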
Outline: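 After 24 h compound exposure in medium with 3 nM 6-alpha-fluorotestosterone plus 1.5 nM norgestrel, HepG2 cells carrying zebrafish AR–GAL4 reporter constructs were assessed for reporter mRNA gain by RT-PCR and capillary electrophoresis.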

[9] = ATG_M_32_XSP2: Attagene TRANS-FACTORIAL Multi-Species (XSP2) HepG2 Assay for M19 Transcription Factor (Internal Marker) (AID 2283826)
Outline: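 Read-out: fluorescent reporter mRNA fragments resolved by capillary electrophoresis after RT-PCR, gain-of-signal versus DMSO baseline. Cells were human HepG2 carrying transfected multi-reporter units, exposed 24 h. Medium contained 3 nM 6-alpha-fluorotestosterone plus 1.5 nM norgestrel.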

[10] = system: frog Estrogen Receptor (ER2), gene 100174814; test: ATG_frER2_XSP2: Attagene TRANS-FACTORIAL Multi-Species (XSP2) HepG2 Assay for frog Estrogen Receptor (ER2) (AID 2283828)
Outline: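 Cells were transfected with reporter constructs under GAL4-UAS control, dosed with chemicals for 24 h, then lysed for RNA; the frog ER2-driven reporter mRNA was quantified by capillary electrophoresis of labeled PCR fragments, with activity fitted upward from DMSO.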

[11] = target: Peroxisome proliferator-activated receptor gamma (Homo sapiens) (UniProt P37231); test: ATG_hPPARg_XSP2: Attagene TRANS-FACTORIAL Multi-Species (XSP2) HepG2 Assay for human Peroxisome Proliferator-activated Receptor gamma (PPARg) (AID 2283829);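 further: actives raise reporter mRNA above DMSO so AC50 reflects PPARg activation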
Outline: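 Transient MRTU transfection, HepG2; TRANS format (exogenous NR-Gal4 chimeras). 24 h chemical exposure with 3 nM 6-alpha-fluorotestosterone and 1.5 nM norgestrel present. Readout: reporter mRNA via RT-PCR/CE fluorescence, up-direction vs DMSO.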

[12] = target: mouse Peroxisome Proliferator-activated Receptor gamma (PPARg), Pparg (gene 19016) (UniProt P37238); test: ATG_mPPARg_XSP2: Attagene TRANS-FACTORIAL Multi-Species (XSP2) HepG2 Assay for mouse Peroxisome Proliferator-activated Receptor gamma (PPARg) (AID 2283830);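 further: hits are gains in reporter mRNA above DMSO so AC50 marks activation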
Outline: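 Multiplexed TRANS reporter readout: after 24 h chemical exposure of transfected HepG2 cells (with 3 nM 6-alpha-fluorotestosterone, 1.5 nM norgestrel present), RNA reverse-transcribed, amplified, 6-FAM-labelled and resolved by capillary electrophoresis; mouse PPARg-Gal4 induction scored against DMSO.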

[13] = target: Nuclear receptor subfamily 1 group I member 2 (Mus musculus) (UniProt O54915); test: ATG_mPXR_XSP2: Attagene TRANS-FACTORIAL Multi-Species (XSP1) HepG2 Assay for mouse Pregnane X Receptor (PXR) (AID 2283831)
Outline: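 Transient HepG2 transfection, multiplexed GAL4-UAS reporters, NR-GAL4 chimeras. 24 h compound exposure. Readout: reporter mRNA, RT-PCR, fluorescent capillary electrophoresis; positive direction vs DMSO baseline.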

[14] = target: zebrafish Thyroid Hormone Receptor alpha (TRa), thraa (gene 30670) (UniProt Q98867); test: ATG_zfTRa_XSP2: Attagene TRANS-FACTORIAL Multi-Species (XSP1) HepG2 Assay for zebrafish Thyroid Hormone Receptor alpha (TRa) (AID 2283832);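 further: actives raise zebrafish TRa-Gal4 reporter transcript above DMSO baseline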
Outline: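 HepG2, transient MRTU transfection, exogenous NR-Gal4 chimeras; 24 h dosing; mRNA readout via RT-PCR/CE fluorescence; positive direction vs DMSO.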

[15] = system: zebrafish Peroxisome Proliferator-activated Receptor gamma (PPARg), gene 557037; test: ATG_zfPPARg_XSP2: Attagene TRANS-FACTORIAL Multi-Species (XSP2) HepG2 Assay for zebrafish Peroxisome Proliferator-activated Receptor gamma (PPARg) (AID 2283833);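 further: reporter mRNA from a zebrafish PPARg GAL4 chimera measured by RT-PCR and capillary electrophoresis; actives increase reporter signal over DMSO so AC50 reflects activation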
Outline: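 Transfect HepG2 with multiplexed GAL4-UAS reporter constructs; dose chemical 24 h; isolate RNA, reverse-transcribe, PCR-amplify, label and digest reporter products; resolve by capillary electrophoresis. Activity taken as increase over DMSO.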

[16] = system: turtle Thyroid Hormone Receptor, alpha (TRa), gene 101949057; test: ATG_trTRa_XSP2: Attagene TRANS-FACTORIAL Multi-Species (XSP1) HepG2 Assay for turtle Thyroid Hormone Receptor, alpha (TRa) (AID 2283834);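 further: hits raise reporter mRNA over the DMSO baseline so AC50 marks activators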
Outline: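 Readout: reporter mRNA induction, fluorescence after RT-PCR, HpaI digestion and capillary electrophoresis. Transiently transfected HepG2, exogenous NR-Gal4 chimera driving GAL4-UAS reporter, 24 h compound exposure. Activity fitted upward relative to DMSO baseline.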

[17] = ATG_M_61_XSP2: Attagene TRANS-FACTORIAL Multi-Species (XSP2) HepG2 Assay for M61 Transcription Factor (Internal Marker) (AID 2283835; active means hit-call score of the fitted dose curve at least 0.9, where 1 is the maximum; inactive means score below 0.9;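 further: reporter mRNA of an internal background marker read by RT-PCR and capillary electrophoresis; active means a rise in signal above the DMSO baseline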)
Outline: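 Transient MRTU transfection of human HepG2; 24 h chemical dosing with 3 nM 6-alpha-fluorotestosterone + 1.5 nM norgestrel added for AR stimulation. RNA isolated, RT, PCR, FAM-labelled, HpaI cut, CE read. Positive direction vs DMSO.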

[18] = target: human Thyroid hormone Receptor alpha (TRa), THRA (gene 7067) (UniProt P10827); test: ATG_hTRa_XSP2: Attagene TRANS-FACTORIAL Multi-Species (XSP2) HepG2 Assay for human Thyroid hormone Receptor alpha (TRa) (AID 2283838)
Outline: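 Reporter transcripts were read by RT-PCR with fluorescent primer extension, HpaI digestion and capillary electrophoresis. These came from HepG2 cells carrying multiplexed TRa-Gal4 TRANS constructs, harvested 24 hours after dosing. The medium also held 6-alpha-fluorotestosterone (3 nM) and norgestrel (1.5 nM), and increases were fitted against DMSO.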

[19] = target: frog Thyroid hormone Receptor alpha (TRa), thra-a (gene 397942) (UniProt P15204); test: ATG_frTRa_XSP2: Attagene TRANS-FACTORIAL Multi-Species (XSP2) HepG2 Assay for frog Thyroid hormone Receptor alpha (TRa) (AID 2283839)
Outline: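 Read-out: fluorescent reporter-transcript fragments resolved by capillary electrophoresis after RT-PCR and HpaI cut. Human HepG2 liver cells carry a transfected frog TRα-Gal4 chimera driving a UAS reporter; 24 h exposure, DMSO baseline, positive-direction fit.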

[20] = target: human Thyroid hormone Receptor beta (TRb), THRB (gene 7068) (UniProt P10828); test: ATG_hTRb_XSP2: Attagene TRANS-FACTORIAL Multi-Species (XSP2) HepG2 Assay for human Thyroid hormone Receptor beta (TRb) (AID 2283840);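 further: actives raise reporter mRNA so potency reflects agonist-like gain of signal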
Outline: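 Read-out: reporter mRNA induction (RT-PCR, 6-FAM labeling, capillary electrophoresis), gain-of-signal relative to DMSO baseline. Transiently transfected HepG2 TRANS multiplex (NR-Gal4 chimeras, GAL4-UAS reporters), 24 h chemical exposure; medium contained 3 nM 6-alpha-fluorotestosterone plus 1.5 nM norgestrel.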

Measured: AC50

O=[P+](Oc1ccccc1)Oc1ccccc1
active: [1] 27.5 µM | [4] 20.1 µM | [5] 49.2 µM and 15.2 µM | [7] 25.5 µM and 7.4 µM | [10] 15.8 µM and 5.58 µM
inactive: [1] | [2] | [3] | [4] | [6] | [8] | [9] | [11] | [12] | [13] | [14] | [15] | [16] | [17] | [18] | [19] | [20]
